The target in this assay is KOR (Homo sapiens, UniProt P41145). The experiment in a line: Beta-lactamase reporter gene assay (FRET), KOR. Format: cell-based. Particulars: read-out: KOR EC50; β-lactamase assay, agonist mode, CHO-K1 cells; mean ± SEM, 2–3 independent experiments in duplicates.

Sequences of proteins named here, by UniProt entry; tags and fusion partners are left off. A change or cut given only in a name is not applied to a line headed by its entry.
UniProt P41145: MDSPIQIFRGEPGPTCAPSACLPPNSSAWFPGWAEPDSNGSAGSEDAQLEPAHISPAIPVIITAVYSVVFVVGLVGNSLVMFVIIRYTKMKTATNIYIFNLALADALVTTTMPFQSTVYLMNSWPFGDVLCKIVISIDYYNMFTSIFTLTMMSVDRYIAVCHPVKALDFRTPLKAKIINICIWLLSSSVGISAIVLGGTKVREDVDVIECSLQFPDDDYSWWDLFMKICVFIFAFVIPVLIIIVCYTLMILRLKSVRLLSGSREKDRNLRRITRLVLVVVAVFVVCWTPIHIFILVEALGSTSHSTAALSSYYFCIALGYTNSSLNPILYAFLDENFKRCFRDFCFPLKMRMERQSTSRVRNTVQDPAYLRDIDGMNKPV

The term EC50 denotes the concentration needed to bring the measured effect to its halfway point. Consider (±)-trans-U-50488 methanesulfonate salt, for which the EC50 was determined as 1.4 nM.

The values are drawn from publication PMC8396344, “Palmitoylation of Prolactin-Releasing Peptide Increased Affinity for and Activation of the GPR10, NPFF-R2 and NPFF-R1 Receptors: In Vitro Study” (International Journal of Molecular Sciences, 2021).
